From patent US4327210A, “Thiazolylacelamide cephalosporins” (Hoffmann-La Roche Inc., priority 1978, dated 1982)

Assay: in vivo

CO/N=C(\C(=O)N[C@@H]1C(=O)N2C(C(=O)O)=C(CSc3nc(=O)c(=O)[nH]n3C)CS[C@H]12)c1csc(N)n1 [Product A]
LD50 (iv): 250 to 500 mg/kg
LD50 (po): > 5000 mg/kg
LD50 (sc): > 4000 mg/kg
